# According to PubChem BioAssay AID493131 (Broad Institute, 2011):
# By UniProt entry, the sequences of proteins in these tests, tags left out.
# UniProt P13346, whole entry: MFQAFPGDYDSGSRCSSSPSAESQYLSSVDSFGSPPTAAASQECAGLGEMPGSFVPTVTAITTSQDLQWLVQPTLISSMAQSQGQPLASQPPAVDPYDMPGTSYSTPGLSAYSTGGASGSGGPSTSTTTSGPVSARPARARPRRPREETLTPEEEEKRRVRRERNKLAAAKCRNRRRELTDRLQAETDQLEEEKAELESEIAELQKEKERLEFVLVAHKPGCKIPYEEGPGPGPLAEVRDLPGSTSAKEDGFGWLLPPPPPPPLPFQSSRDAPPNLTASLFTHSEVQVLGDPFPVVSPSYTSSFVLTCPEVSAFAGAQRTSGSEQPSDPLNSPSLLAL
# The entries are a selection whose mix differs from that of the whole data set. Some results for these compounds are left out of this collection, so the calls shown say nothing about other tests. Activity calls are given as the source filed them.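 Rule for the calls: active = mean activation above about 17%, with every replicate also reaching it (limit read from the data, passing the limit was not always enough); inconclusive = only one of the two conditions met; inactive = the rest.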
# Molecular target: Protein FosB (Mus musculus) (UniProt P13346)
# Test: enhancers of mouse delta FosB DNA binding – biochemical, fluorescence polarization, TAMRA-CDK5 oligo, single point, primary screen (AID 493131);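 note: fluorescence polarization rise as delta FosB binds a TAMRA Cdk5 AP-1 oligo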
# Settings: purified delta FosB, at 25 µM, stronger effect = higher value, percent of positive-control signal above neutral wells
row,SMILES,activation
1,O=C(OC1CN2CCC1CC2)C(CO)(c1ccccc1)c1ccccc1 (stereo not given),inactive: -1.74%
2,COc1ccc(Br)c(C(=O)NCC2(N3CCCCC3)CCCCC2)c1,inactive: 5.15%
3,CN(C)c1cccc(C(=O)NCC2(N(C)C)CCCCC2)c1,inactive: 4.11%
4,O=C(OCCN1CCCC1)C(O)(c1ccccc1)c1ccccc1,inactive: 5.83%
5,CC(C)Oc1ccc(C(=O)NCC2(N(C)C)CCCCC2)cc1,inactive: 8.74%
6,CN(C)C1(CNC(=O)c2ccc(Br)cc2)CCCCC1,inactive: -1.31%
7,COc1cc(C(=O)NCC2(N(C)C)CCCCC2)c([N+](=O)[O-])cc1OC,inactive: -2.53%
8,COc1ccc(Cl)cc1C(=O)NCC1(N(C)C)CCCCC1,inactive: -3.92%
9,COc1cccc(C(=O)NCC2(N3CCCCC3)CCCCC2)c1,inactive: -2.59%
10,O=C(NCC1(N2CCCCC2)CCCCC1)c1cccc(Cl)c1,inactive: -2.09%
11,CN(C)C1CCCC1OC(=O)C(O)(c1ccccc1)c1ccccc1 (stereo not given),inactive: -7.51%
12,CN(C)c1ccc(C(=O)NCC2(N(C)C)CCCCC2)cc1,inactive: -0.45%
13,Cc1ccccc1C(=O)NCC1(N2CCCCC2)CCCCC1,inactive: 3.4%
14,O=C(NCC1(N2CCCCC2)CCCCC1)c1cc(F)c(F)cc1Cl,inactive: -4.11%
15,C=CCN1CCN(CCOC(=O)C(O)(c2ccccc2)c2ccccc2)CC1,inactive: -3.12%
16,O=C(NCC1(N2CCCCC2)CCCCC1)c1cccc(Br)c1,inactive: -9.94%
17,Cc1cc(C(=O)NCC2(N3CCCCC3)CCCCC2)ccc1[N+](=O)[O-],inactive: -2.88%
18,CCN1CCCC(OC(=O)C2(O)c3ccccc3C=Cc3ccccc32)C1 (stereo not given),inactive: -6.09%
19,COc1ccc(C(=O)NCC2(N(C)C)CCCCC2)cc1,inactive: -5.27%
20,O=C(NCC1(N2CCCCC2)CCCCC1)c1cc([N+](=O)[O-])ccc1Cl,inactive: -7.89%
21,CN1[C@@H]2CC[C@H]1CC(OC(=O)C(O)(c1ccccc1)c1ccccc1)C2 (stereo not given in full),inactive: -7.6%
22,CC(C)N1C(=O)CC2(CCN(CCOC(=O)C(O)(c3ccccc3)c3ccccc3)CC2)C1=O,inactive: -3.22%
23,COc1cc(SC)ccc1C(=O)NCC1(N(C)C)CCCCC1,inactive: 1.05%
24,CCN(CC)CC(C)C(C)OC(=O)C(O)(c1ccccc1)c1ccccc1 (stereo not given),inactive: -3.61%
25,Cc1ccc(C(=O)NCC2(N3CCCCC3)CCCCC2)cc1,inactive: -7.87%
